This assay addresses Cytochrome P450 2C9 (Homo sapiens, UniProt P11712). In words: Inhibition of recombinant human CYP2C9 by P450-Glo luminescence assay. Format: ADME.

Amino acid sequences for entries named in this document (tags omitted).
UniProt P11712, whole entry: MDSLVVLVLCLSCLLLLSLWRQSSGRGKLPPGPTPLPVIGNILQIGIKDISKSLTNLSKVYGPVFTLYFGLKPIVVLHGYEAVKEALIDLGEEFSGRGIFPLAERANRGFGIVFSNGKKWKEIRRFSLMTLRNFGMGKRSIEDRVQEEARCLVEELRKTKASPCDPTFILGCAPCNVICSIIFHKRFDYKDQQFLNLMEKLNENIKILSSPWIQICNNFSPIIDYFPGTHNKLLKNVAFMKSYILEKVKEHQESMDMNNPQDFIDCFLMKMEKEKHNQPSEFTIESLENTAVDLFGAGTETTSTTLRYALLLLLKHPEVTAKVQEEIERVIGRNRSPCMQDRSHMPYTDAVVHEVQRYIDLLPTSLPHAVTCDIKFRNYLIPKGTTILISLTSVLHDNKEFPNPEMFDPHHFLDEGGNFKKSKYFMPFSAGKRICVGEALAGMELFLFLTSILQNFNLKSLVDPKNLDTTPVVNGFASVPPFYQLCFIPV

Regarding `OC(Cn1cncn1)(Cn1cncn1)c1ccc(F)cc1F` [FLUCONAZOLE], the half-inhibitory concentration (IC50) turned out to be 9.21 µM.

For the origin of these results see ChEMBL document CHEMBL3822384, “2-(3-Methoxyphenyl)quinazoline Derivatives: A New Class of Direct Constitutive Androstane Receptor (CAR) Agonists” (J Med Chem, 2016).
